{
  "source": "patent US20040258692A1",
  "about": "“Method for the treatment of cardiotoxicity induced by antitumor compounds” (priority 2001, published 2004)",
  "origin": "cited, not measured here",
  "test_system": "metastatic breast cancer (MBC)",
  "conditions": "first-line or second-line therapy for MBC, cited from earlier work",
  "note": "Where two headings read alike, the source gives them in different places.",
  "data": [
    {"substance": "Trastuzumab: recombinant DNA-derived humanized monoclonal antibody (IgG1 kappa) that binds HER2", "values": [
      {"measurement": "response rates", "setting": "single-agent trastuzumab", "result": "12% to 23"},
      {"measurement": "response rates", "setting": "trastuzumab plus chemotherapy", "result": "25% to 62"}
    ]}
  ]
}
